Molecular target: recombinant thioesterase domain of fatty acid synthase (FAS TE) (Homo sapiens, UniProt P49327)
Experiment: Fluorogenic assay (4-MUH substrate) for inhibition of recombinant FAS thioesterase domain
Type: biochemical
Conditions: read-out: apparent Ki, 30 min pre-incubation at 37 deg.C

By UniProt entry, the sequences of proteins in these tests, tags left out. Residues count along the entry.
UniProt P49327, 2207-2511 limits assumed: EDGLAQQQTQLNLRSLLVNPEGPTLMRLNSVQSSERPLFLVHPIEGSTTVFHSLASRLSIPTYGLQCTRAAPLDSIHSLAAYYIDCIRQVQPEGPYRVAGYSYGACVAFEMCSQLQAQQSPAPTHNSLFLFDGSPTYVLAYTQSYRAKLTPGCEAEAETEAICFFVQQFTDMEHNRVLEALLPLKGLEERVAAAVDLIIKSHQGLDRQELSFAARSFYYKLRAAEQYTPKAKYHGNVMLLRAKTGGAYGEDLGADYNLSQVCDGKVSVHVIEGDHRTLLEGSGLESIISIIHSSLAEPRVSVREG

| SMILES | Ki [µM] |
| --- | --- |
| O=C1O[C@H](CCC2CCCCC2)[C@H]1CC1CCCCC1 | 6.3 |
| O=C1O[C@H](CCC2CCCC2)[C@H]1CC1CCCC1 | 6.7 |
